Assay results reported in patent US20050164945A1, “Endotheliase-1 ligands” (priority 2003, published 2005).

T1: recombinant endotheliase 1 (human), Q9UL52
T1 chain: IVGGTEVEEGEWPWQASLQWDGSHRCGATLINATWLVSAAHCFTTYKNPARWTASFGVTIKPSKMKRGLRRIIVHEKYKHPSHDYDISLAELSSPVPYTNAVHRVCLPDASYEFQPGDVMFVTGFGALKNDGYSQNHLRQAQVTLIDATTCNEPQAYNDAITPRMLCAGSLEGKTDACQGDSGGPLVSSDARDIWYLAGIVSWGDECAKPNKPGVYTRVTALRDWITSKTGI


Experiments:
[1] = biological target: T1, recombinant endotheliase 1 (human), …; assay: apparent Ki, inhibition of ET1, uncorrected for substrate
[2] = biological target: T1, recombinant endotheliase 1 (human), …; assay: inhibition of ET1 activity

Ki [1] [nM] | Ki [2] [nM] | Binder
33.6 |  | AGKHICRGYYPDCEWQIFGT (modifications not checked) [DX-1650]
16.6 |  | AGQVRRYCISRDIPCVTHGT (modifications not checked) [DX-1626]
 | 103 | AGKHICKGYYPDCGYPGT (modifications not checked) [DX-1039]
10.2 |  | AGQMRRKCISRDIPCVTHGTY (modifications not checked) [DX-1628]
8.5 |  | AGKMRCISRDIPCSHYQIGT (modifications not checked) [DX-1637]
8.6 |  | AGKHICRGYYPDCVWQTWGT (modifications not checked) [DX-1646]
145 |  | AGRSRVRCISRDIPCVTHGTY (modifications not checked) [DX-1629]
 | 256 | AGNYMCKGYWPDCKMTGT (modifications not checked) [DX-1133]
